Measured values published in US5998393A, “Methods for assessing 1,25(OH)2 D3 activity in skin and for enhancing the therapeutic use of 1,25(OH)2 D3” (priority 1997, dated 1999).

Columns and labels:
24-hydroxylase mRNA = test: 24-OHase mRNA induction in human skin in vivo after topical application (Northern blot); conditions: for 24-OHase mRNA expression, agent alone: human skin in vivo, applied by itself
CRABP-II mRNA = CRABP-II mRNA induction in human skin in vivo (reprobed blots)

## CC1=C(/C=C/C(C)=C\C=C\C(C)=C\C(=O)O)C(C)(C)CCC1 [9-c-RA, 9-cis retinoic acid]
24-hydroxylase mRNA; RA isomer (0.1%) added to 0.002% 1,25(OH)2D3
  increase in 24-OHase transcription level compared to 1,25(OH)2 D3 treatment alone: 76%
24-hydroxylase mRNA; discussion
  24-OHase mRNA expression, agent alone: neither 9-c-RA nor t-RA alone induced
CRABP-II mRNA
  CRABP-II mRNA levels: markedly induced

## CC1=C(/C=C/C(C)=C/C=C/C(C)=C/C(=O)O)C(C)(C)CCC1 [t-RA, All-trans-retinoic acid]
24-hydroxylase mRNA; co-applied with low dose (0.002%) 1,25(OH)2 D3, discussion
  enhancement of 24-OHase mRNA level induced by a low dose of 1,25(OH)2 D3: synergistically enhanced
24-hydroxylase mRNA; discussion
  24-OHase mRNA expression, agent alone: neither 9-c-RA nor t-RA alone induced
CRABP-II mRNA
  CRABP-II mRNA levels: markedly induced
